Reference: PubChem BioAssay AID488928 (Johns Hopkins Ion Channel Center, 2010)
The entries are a selection whose mix differs from that of the whole data set. Active and inactive are the calls of the source.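 The calls were made as follows: active = drop in membrane potential signal beyond 5 SD of the control wells in both duplicate plates; inactive = the rest.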

The compounds below were run on TRPC4 (transient receptor potential cation channel C4), mouse (assay: DAMGO-evoked mouse TRPC4 response blockade – cell-based, second screen, HEK293 TRPC4/mu-opioid, membrane potential dye, selectivity assay for TRPC6 modulator project, confirmation (AID 488928;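 also: TRPC4 counter screen for TRPC6 hits run under conditions tuned for TRPC6 not TRPC4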)). Conditions: membrane potential dye fluorescence, at 10 µM, stimulated with maximal-effect DAMGO; hits give high values.
In the case of O=C(OC1CN2CCC1CC2)C1c2ccccc2C=Cc2ccccc21 (configuration not stated), the inhibition was active: 43.5%.
CN1CCN(CCOC(=O)C(O)(c2ccccc2)c2ccccc2)CC1 was tested, and the inhibition was “inactive”.
